Test results: patent publication US4505932A, “Method of producing α2 -adrenergic receptor agonist activity” (Abbott Laboratories, priority 1984, dated 1985)

Sequences of proteins named here, by UniProt entry; tags and fusion partners are left off.
UniProt P15823, whole entry: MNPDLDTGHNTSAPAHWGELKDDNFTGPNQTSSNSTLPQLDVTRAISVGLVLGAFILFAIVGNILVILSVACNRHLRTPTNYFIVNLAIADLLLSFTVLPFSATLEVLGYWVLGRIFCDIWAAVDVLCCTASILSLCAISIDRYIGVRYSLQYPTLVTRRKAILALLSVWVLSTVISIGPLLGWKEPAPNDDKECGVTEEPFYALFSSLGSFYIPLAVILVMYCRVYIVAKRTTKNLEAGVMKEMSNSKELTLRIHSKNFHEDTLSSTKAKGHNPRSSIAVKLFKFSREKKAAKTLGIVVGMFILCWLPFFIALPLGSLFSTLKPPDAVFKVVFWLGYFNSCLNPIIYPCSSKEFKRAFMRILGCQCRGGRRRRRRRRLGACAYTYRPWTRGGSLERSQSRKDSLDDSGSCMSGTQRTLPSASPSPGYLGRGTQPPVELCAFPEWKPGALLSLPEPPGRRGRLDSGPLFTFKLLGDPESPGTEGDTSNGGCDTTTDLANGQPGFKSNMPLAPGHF

How the values were obtained:
α2 -adrenergic receptors = format: binding; conditions: selectivity ratio, rat liver α1 vs rat brain cortex α2
α1 -adrenergic receptors = target: T1, α1 -adrenergic receptors (Rattus norvegicus, UniProt P15823); experiment: radioligand binding, [3H] prazosin displacement in rat liver
T1 construct: from tissue; host or cells: rat liver

| Structure (SMILES) | KIα1/KIα2 (α2 -adrenergic receptors) | Ki (α1 -adrenergic receptors) |
| --- | --- | --- |
| CNC[C@H](O)c1ccc(O)c(O)c1 [Epinephrine, epinephrine, reference compound] | 5 | 286 nM |
| Clc1cccc(Cl)c1N=C1NCCN1 [Clonidine, clonidine, reference compound] | – | 648 nM |
